Assays:
[1] = system: CFPAC-1 pancreatic cancer line; assay: Viability test, CFPAC-1 pancreatic cancer line; conditions: 24-hour incubation, FIG. 4
[2] = system: melanoma (MeWO [ATCC HTB-65]); assay: XTT viability assay, MeWo human melanoma cell line; conditions: same range of concentration for complex and cisplatin, FIG. 2
[3] = system: B16-F10 murine melanoma cell line; assay: XTT viability assay, B16-F10 murine melanoma cell line; conditions: same range of concentration for complex and cisplatin, FIG. 3

diamminedichloroplatinum II
viability in the entire concentration range [1]: resistance
biological activity towards the cells in the studied concentration range [2]: only a weak inhibitory effect
biological activity towards the cells in the studied concentration range [3]: weak inhibitory effect

From patent publication US11548792B2, “Water-soluble gold (III) complexes, methods of producing water-soluble gold (III) complexes and their use” (dated 2023)
